Source: US20210325406A1 (priority 2018, published 2021)
“And” between values parts separate entries of the source, which are not always exact repeats. Identical values can stand only once.

Sequences of proteins named here, by UniProt entry; tags and fusion partners are left off. Residues count along the entry.
UniProt A0QR29, 28-211 D117N/D118M/D120N/D145R/D161R/E166K limits assumed: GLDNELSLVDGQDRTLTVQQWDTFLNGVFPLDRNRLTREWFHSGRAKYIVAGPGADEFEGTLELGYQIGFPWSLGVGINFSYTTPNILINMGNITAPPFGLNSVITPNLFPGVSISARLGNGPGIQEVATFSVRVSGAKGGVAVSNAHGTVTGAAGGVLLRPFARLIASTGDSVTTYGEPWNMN

Legend:
Type in all cases: binding
MspA-M = MspA-M (Mycolicibacterium smegmatis, UniProt A0QR29, D117N/D118M/D120N/D145R/D161R/E166K)
Au(III) embedded MspA-M [1] = target: T1, Au(III) embedded MspA-M (Mycolicibacterium smegmatis, UniProt A0QR29, D117N/D118M/D120N/D145R/D161R/E166K)
Au(III) embedded MspA-M [2] = target: T1, Au(III) embedded MspA-M; remark: listed apart in the source

## N[C@@H](CS)C(=O)O [L-Cysteine, L-cysteine]
MspA-M
  biothiol binding events without Au(III) embedment: No Cys, Hcy or GSH binding event were observed
Au(III) embedded MspA-M [1]
  Current blockade (ΔI0−1, Cys): 25 ± 2 pA
  Cys sensing events as share of all detectable events: 96%
  Dwell time (τoff, Cys): 3.18 ms and 3.48 ms and 3.04 ms
  mean ΔI/I0, three independent experiments: 0.104±0.0006
  ΔI/I0, Gaussian fitting, simultaneous discrimination: 0.105±0.005

## N[C@@H](CCC(=O)N[C@@H](CS)C(=O)NCC(=O)O)C(=O)O [L-Glutathione, L-glutathione]
MspA-M
  biothiol binding events without Au(III) embedment: No Cys, Hcy or GSH binding event were observed
Au(III) embedded MspA-M [1]
  Dwell time (τoff, Cys): 2.82 ms and 2.27 ms and 2.19 ms
  mean ΔI/I0, three independent experiments: 0.154±0.011

## N[C@@H](CCS)C(=O)O [L-Homocysteine, L-homocysteine]
MspA-M
  biothiol binding events without Au(III) embedment: No Cys, Hcy or GSH binding event were observed
Au(III) embedded MspA-M [1]
  Dwell time (τoff, Hcy): 2.94 ms and 1.65 ms and 2.50 ms
  mean ΔI/I0, three independent experiments: 0.128±0.004
  ΔI/I0, Gaussian fitting, simultaneous discrimination: 0.128±0.013

## CSCC[C@H](N)C(=O)O [L-Methionine, L-methionine]
Au(III) embedded MspA-M [2]
  Dwell time (τoff): 8.07 ± 3.18 s and 10.87 ± 1.87 s and 11.22 ± 2.35 s
